Results as given in publication PMC8452302 (CPT: Pharmacometrics & Systems Pharmacology, 2021).

Amino acid sequences for entries named in this document (tags omitted). A change or cut given only in a name is not applied to a line headed by its entry.
UniProt Q9UNQ0: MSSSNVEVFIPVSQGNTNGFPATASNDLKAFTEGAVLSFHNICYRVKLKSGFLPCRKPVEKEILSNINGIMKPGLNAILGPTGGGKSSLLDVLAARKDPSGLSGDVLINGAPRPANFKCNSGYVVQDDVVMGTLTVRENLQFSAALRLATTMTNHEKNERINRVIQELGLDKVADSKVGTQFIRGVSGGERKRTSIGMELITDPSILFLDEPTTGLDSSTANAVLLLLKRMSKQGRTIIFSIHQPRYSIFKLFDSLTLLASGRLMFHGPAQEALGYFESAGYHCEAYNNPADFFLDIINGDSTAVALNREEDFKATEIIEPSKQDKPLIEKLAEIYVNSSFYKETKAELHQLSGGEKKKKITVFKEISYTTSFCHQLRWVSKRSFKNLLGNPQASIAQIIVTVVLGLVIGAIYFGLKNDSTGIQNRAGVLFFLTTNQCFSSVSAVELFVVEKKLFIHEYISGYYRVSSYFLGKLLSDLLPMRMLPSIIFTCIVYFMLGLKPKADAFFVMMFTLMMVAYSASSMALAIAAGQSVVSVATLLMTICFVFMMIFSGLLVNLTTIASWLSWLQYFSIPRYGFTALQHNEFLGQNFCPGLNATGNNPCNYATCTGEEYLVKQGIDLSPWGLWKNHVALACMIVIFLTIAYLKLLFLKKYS

Target: BCRP (Homo sapiens, UniProt Q9UNQ0)
Assay: In vitro BCRP inhibition, HEK293-BCRP membrane vesicles, rosuvastatin probe
Format: biochemical

IC50: 14.9 µM
Compound: CO[C@H]1/C=C/O[C@@]2(C)Oc3c(C)c(O)c4c(O)c(c(/C=N/N5CCN(C)CC5)c(O)c4c3C2=O)NC(=O)/C(C)=C\C=C\[C@H](C)[C@H](O)[C@@H](C)[C@@H](O)[C@@H](C)[C@H](OC(C)=O)[C@@H]1C [Rifampicin]
